From patent US20230071371A1 (Scripps Research, published 2023)

By UniProt entry, the sequences of proteins in these tests, tags left out. Residues count along the entry.
UniProt P02770, 25-608 limits assumed: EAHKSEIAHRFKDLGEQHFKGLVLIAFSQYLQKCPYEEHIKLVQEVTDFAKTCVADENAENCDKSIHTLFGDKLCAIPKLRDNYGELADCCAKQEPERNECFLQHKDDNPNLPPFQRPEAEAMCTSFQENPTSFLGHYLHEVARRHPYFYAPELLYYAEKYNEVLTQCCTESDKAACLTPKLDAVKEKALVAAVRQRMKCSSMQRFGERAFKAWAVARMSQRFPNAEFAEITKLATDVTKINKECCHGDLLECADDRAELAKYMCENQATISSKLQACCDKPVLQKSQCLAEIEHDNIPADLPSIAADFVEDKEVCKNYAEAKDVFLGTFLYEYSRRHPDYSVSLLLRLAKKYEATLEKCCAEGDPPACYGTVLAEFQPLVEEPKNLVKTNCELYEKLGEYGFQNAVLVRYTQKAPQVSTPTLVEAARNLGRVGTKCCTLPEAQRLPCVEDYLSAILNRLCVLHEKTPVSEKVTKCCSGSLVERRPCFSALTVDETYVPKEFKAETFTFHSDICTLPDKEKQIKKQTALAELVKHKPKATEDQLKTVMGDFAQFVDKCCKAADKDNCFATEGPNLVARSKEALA

Molecular target: rat serum albumin (rat) (UniProt P02770)
Test: Biacore SPR

With semaglutide (peptide) the Kd was 17 µM.
